The values that follow come from publication PMC13266984 (Journal of medicinal chemistry, 2026).

Protein sequences, listed by entry. Tags and fused reporters are not part of them.
UniProt P30838, whole entry: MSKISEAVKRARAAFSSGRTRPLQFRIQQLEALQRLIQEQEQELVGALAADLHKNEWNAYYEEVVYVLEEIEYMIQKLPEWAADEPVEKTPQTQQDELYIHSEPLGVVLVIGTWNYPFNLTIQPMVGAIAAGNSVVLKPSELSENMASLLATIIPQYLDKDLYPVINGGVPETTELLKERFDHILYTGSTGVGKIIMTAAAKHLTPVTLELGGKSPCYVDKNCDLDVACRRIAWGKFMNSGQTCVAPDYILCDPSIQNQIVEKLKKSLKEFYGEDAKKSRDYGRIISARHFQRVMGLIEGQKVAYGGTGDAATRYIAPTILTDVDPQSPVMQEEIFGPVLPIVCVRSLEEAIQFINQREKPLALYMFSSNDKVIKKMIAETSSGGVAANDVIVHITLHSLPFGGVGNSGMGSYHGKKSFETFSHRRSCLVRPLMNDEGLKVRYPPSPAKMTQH

Assay [1] has as its target T1, Human ALDH3A1 (Homo sapiens, UniProt P30838). The assay can be described thus: ALDH3A1 biochemical assay (benzaldehyde/NADP+, diaphorase-resazurin readout, 1,536-well). To be noted: read-out: ALDH3A1 biochemical IC50. For orientation: The colour change of resazurin is a common sign of viable cells or microbes.
Assay [2] addresses T1, Human ALDH3A1. As to the kind of experiment: Diazirine photo-crosslinking with recombinant ALDH3A1 and LC-MS/MS proteomics. To be noted: UV irradiation, HPLC-MS/MS.
For assay [3], the target named is OE19 (3A1) (Homo sapiens, UniProt P30838). As to the kind of experiment: Cellular ALDEFLUOR assay in OE19 cells (preferential ALDH3A1 expression). To be noted: read-out: cellular IC50 (Aldefluor).

The IC50 is the midpoint of a concentration-inhibition curve. `C#CCCC1(CCOc2cccc(CNC(=O)c3csc(N4CCN(c5cccc(C(F)(F)F)c5)CC4)n3)c2)N=N1`: the IC50 in assay [1] is 0.738 µM; in assay [3], 0.015 µM. The “peptide sequence modified by photo-crosslinking” value in assay [2] was “WNAYYEEVVYVLE”.
